# The list is not random: actives were taken first. Their share in the collection is about 2.3%.
# Nrf2 activator: Nrf2 pathway activation. AREc32 ARE-luciferase reporter (MCF7-derived line), luminescence, 24 h. Potency, µM (series often up to 46.1 µM), for inactives: top-dose activation, usual class: activators. 410,000 compounds, 0.31% hits. AID 624171; note: potency is the fitted concentration of half-maximal effect; % of control where 0% means no effect; nearly all actives have a fitted effect of over 65% in size
#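 ARE-driven firefly luciferase activity in AREc32 cells measured after a 24 hr compound exposure at 37 deg C, using Steady-Glo reagent and a 30 min room-temperature hold.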
# Mito fusion act: mitochondrial division inhibition or fusion activation; S. cerevisiae fusion-defective mutant growth rescue, CellTiterGlo 48 h; Potency, µM (top dose mostly 46.1 µM), for inactives: at the top dose growth rescue (activation), usual class: activators; 320,000 compounds, 0.23% hits; AID 485298; note: potency is the fitted concentration of half-maximal effect; % of control where 0% means no effect; nearly all actives have a fitted effect of over 45% in size
#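 S. cerevisiae fusion-defective temperature-sensitive mutants (e.g. fzo1-1, mgm1-5) grown 48 h at 37C in YPEG (ethanol/glycerol non-fermentable) medium with 23 nl compound per well; growth rescue read as CellTiterGlo luminescence.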
# miR-21 reporter: raises the signal of a miR-21 reporter; 340,000 tested, under 10 active; HeLa miR-21 FLuc reporter, luciferase, 48 h; Potency, µM (series often up to 38.3 µM), for inactives: at the highest dose reporter change, positive = more light; active = well fitted rising curve with a large enough effect; inconclusive = small, poorly fitted or top-dose-only effect; inactive = no such curve, though single readings can be large or run the other way;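 further: % of control where 0% means no effect; miR-21 action dims this reporter so a rising signal means less miR-21 action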
#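 HeLa miR-21-FLuc reporter line, endogenous miR-21; 2000 cells/well in DMEM/10% FBS; compound titration up to ~40uM final, 48 h, 37 degree Celsius; luciferase detection reagent, 15 min lysis, CCD luminescence.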
# GRP78 ERSR act: induces the endoplasmic reticulum stress response in human glioma cells | 420,000 compounds, 0.02% hits | Potency, µM, without a hit: top-dose activation, most hits filed as activators | AID 602332 | U87-MG GRP78 promoter luciferase reporter, 16 h; note: potency is the fitted concentration of half-maximal effect; series mostly up to about 76 µM; % of control where 0% means no effect; nearly all actives have a fitted effect of over 35% in size
#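 Stably transfected U87-MG glioma cells carrying a GRP78-based luciferase sensor; 16 h compound incubation. Luminescence end-point read 10 min after Bright-Glo addition at room temperature.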
# A549 viability: counter-screen for Nrf2 inhibitors: cytotoxicity in A549 cells; A549 ARE-Fluc cells, CellTiter-Fluor viability, 18-24 h; Potency, µM (top dose mostly 46 µM), for the others: top-dose activity change, negative = cytotoxicity, most hits filed as inhibitors; 390,000 compounds, 0.16% hits; AID 504648; note: potency is the fitted concentration of half-maximal effect; % is set by controls: 0 for no effect and ±100 for the full control effect
#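 A549 ARE_Fluc cells in 5% FBS OPTI-MEM were exposed to compounds in concentration-response for 18-24 h at 37 deg C. Viability was read by CellTiter-Fluor fluorescence (Ex 405/Em 525) after 30 min, before the luciferase read.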
# Nrf2 block: inhibitors of Nrf2 signaling; A549 ARE-Fluc reporter, luciferase luminescence, 18-24 h; Potency, µM (top dose mostly 46 µM), for inactives: at the highest dose activity change, negative = inhibition, most hits filed as inhibitors; 360,000 compounds, 2.1% hits; note: potency is the fitted concentration of half-maximal effect; % is set by controls: 0 for no effect and ±100 for the full control effect; nearly all actives have a fitted effect of over 60% in size
#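 In this cell-based qHTS, ARE-driven firefly luciferase in A549 cells reports Nrf2 activity; the luminescent signal after BugLite lysis is the measured value, with a prior CellTiter-Fluor read for cell health.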
# * marks the source's active call; other numbers are inactive results; ? = inconclusive; nt = not tested or not shown; [ ] = another dose, or the depositor's remark. Unless noted, calls come from the whole dose curve; as a rule, active = well fitted curve in the direction sought with a large enough effect; inconclusive = small, poorly fitted or top-dose-only effect, or another doubt; inactive = no such curve, though single readings can be large; an effect the other way counts as inactive or inconclusive.
SMILES	Nrf2 activator	Mito fusion act	miR-21 reporter	GRP78 ERSR act	A549 viability	Nrf2 block
CC(C)(C)c1cc(CN2CCOCC2)c(C(=O)O)o1	0%	-2%	-4%	-3%	-4%	11%
Cc1cc(C)c2sc(N(CCCN(C)C)C(=O)c3ccc(Br)s3)nc2c1	-2%	7%	-1%	-13%	?	15µM*
CCOc1cccc(NCc2cc3c(C(C)(C)C)nn(-c4ccccc4)c3[nH]c2=O)c1	23%	5%	1%	-1%	?	21µM*
COC(=O)c1cccc(NC(=O)c2nn(C)c(=O)c3ccccc23)c1	9%	18%	-19%	4%	0%	-15%
CCNc1ccc2noc3c2c1C(=O)c1ccccc1-3	5%	23%	0%	-2%	?	21µM*
O=C1c2ccccc2-c2onc3ccc(NCc4ccco4)c1c23	?	5%	15%	-6%	?	-28%
CCOc1ccccc1C(=O)Nc1nnc(SCC(=O)Nc2cc(C)on2)s1	-1%	-1%	6%	-1%	-2%	3%
Cc1ccc(-c2noc(-c3ccc(N4CCOCC4)c([N+](=O)[O-])c3)n2)cc1	0%	nt	-15%	-6%	2%	18%
O=[N+]([O-])c1cc(-c2nc(-c3ccccc3)no2)ccc1N1CCOCC1	7%	nt	19%	-6%	0%	23µM*
COc1ccc(-c2noc(-c3ccc(N4CCC(C)CC4)c([N+](=O)[O-])c3)n2)cc1OC	0%	nt	28%	1%	-17%	21µM*

# Next section (2 carried over from the part before).
SMILES	Nrf2 activator	Mito fusion act	miR-21 reporter	GRP78 ERSR act	A549 viability	Nrf2 block
O=[N+]([O-])c1cc(-c2nc(-c3ccccc3)no2)ccc1N1CCOCC1	7%	nt	19%	-6%	0%	23µM*
COc1ccc(-c2noc(-c3ccc(N4CCC(C)CC4)c([N+](=O)[O-])c3)n2)cc1OC	0%	nt	28%	1%	-17%	21µM*
COc1ccc(-c2noc(-c3ccc(N4CCOCC4)c([N+](=O)[O-])c3)n2)cc1OC	-1%	nt	-2%	0%	-4%	-6%
Cc1nc(NCc2ccco2)c2c3c(sc2n1)CCC3	28%	-5%	-6%	-2%	-4%	nt
COc1ccc(Nc2nc(C)nc3sc4c(c23)CCC4)cc1O	6.3µM*	9%	17%	-7%	-13%	-1%
O=[N+]([O-])c1cccc(S(=O)(=O)Nc2ccc(Cc3ccncc3)cc2)c1	0%	1%	10%	1%	2%	16µM*
O=[N+]([O-])c1cccc(S(=O)(=O)NCCc2cccs2)c1	0%	-6%	0%	-5%	-2%	-10%
O=S(=O)(Nc1ccc(Cc2ccncc2)cc1)c1ccc(Cl)s1	0%	25%	2%	-4%	0%	18µM*
O=[N+]([O-])c1cccc(S(=O)(=O)NCc2ccncc2)c1	0%	2%	18%	1%	?	7.3µM*
Cc1ccc(NS(=O)(=O)c2ccc(OCC(=O)Nc3cccc([N+](=O)[O-])c3)c(C)c2)cc1	3%	11%	20%	4%	?	21µM*
O=C(NCc1ccc(Cl)cc1)c1ccc2c(c1)NC(=O)C(CS(=O)(=O)Cc1ccc(F)cc1Cl)N2 (stereo not drawn)	0%	nt	5%	-1%	-1%	-5%
CCC(=O)Oc1ccc2c(c1)O/C(=C\c1ccco1)C2=O	7.9µM*	0%	-32%	5%	-17%	-1%
COC(=O)C1=C(C)NC(=O)/C1=C\c1cc(C)n(-c2c(C)cccc2C)c1C	6%	19%	2%	-6%	21µM*	23µM*
Cc1cc(C(=O)NNC(=O)c2ccc(Cl)cc2)no1	0%	4%	-7%	-4%	8%	1%
COc1ccc(/C=C2/CCCC(CN(C)C)C2=O)cc1 (stereo not drawn)	10µM*	nt	nt	8%	0%	8%
CCCc1nc([N+](=O)[O-])c(S(=O)(=O)c2ccccc2)n1CC(C)C	5.6µM*	17%	?	-12%	-12%	1%
Cc1nn(C)c(Sc2ccccc2N)c1[N+](=O)[O-]	14µM*	-4%	-24%	0%	-1%	8%
CCN(CC(=O)Nc1c(F)cccc1F)C(=O)C1CCN(C(=O)c2ccc(Cl)cc2)CC1	0%	5%	nt	-5%	-11%	-5%
Cc1sc2ncnc(Sc3ccccc3C(=O)Nc3ccc(Br)cc3)c2c1C	0%[9.22 µM]	?	-16%	3%	0%	-24%
Cc1sc2ncnc(Sc3ccccc3C(=O)Nc3ccc(C#N)cc3)c2c1C	0%	13µM*	6%	1%	5%	8%
O=c1[nH]c(=O)n(-c2ccc(F)cc2)c2c1C(C(F)(F)F)(C(F)(F)F)N=C(c1ccc(F)cc1)N2	4%	-6%	10%	-5%	?	16µM*
Cc1ccc(C2=NC(C(F)(F)F)(C(F)(F)F)c3c(n(-c4ccc(F)cc4)c(=O)[nH]c3=O)N2)cc1	0%	-5%	29%	-5%	-13%	21µM*

# Ordered by the number under Nrf2 block (descending): six of the compounds above.
mol	Nrf2 activator	Mito fusion act	miR-21 reporter	GRP78 ERSR act	Nrf2 block
COC(=O)C1=C(C)NC(=O)/C1=C\c1cc(C)n(-c2c(C)cccc2C)c1C	6%	19%	2%	-6%	23µM*
Cc1ccc(NS(=O)(=O)c2ccc(OCC(=O)Nc3cccc([N+](=O)[O-])c3)c(C)c2)cc1	3%	11%	20%	4%	21µM*
O=S(=O)(Nc1ccc(Cc2ccncc2)cc1)c1ccc(Cl)s1	0%	25%	2%	-4%	18µM*
O=[N+]([O-])c1cccc(S(=O)(=O)Nc2ccc(Cc3ccncc3)cc2)c1	0%	1%	10%	1%	16µM*
Cc1cc(C)c2sc(N(CCCN(C)C)C(=O)c3ccc(Br)s3)nc2c1	-2%	7%	-1%	-13%	15µM*
O=[N+]([O-])c1cccc(S(=O)(=O)NCc2ccncc2)c1	0%	2%	18%	1%	7.3µM*

# More compounds
SMILES	Nrf2 activator	Mito fusion act	miR-21 reporter	GRP78 ERSR act	A549 viability	Nrf2 block
O=c1[nH]c(=O)n(-c2ccccc2)c2c1C(C(F)(F)F)(C(F)(F)F)N=C(CCC1CCCCC1)N2	0%	-2%	-4%	-6%	?	18µM*
O=c1[nH]c(=O)n(Cc2ccco2)c2c1C(C(F)(F)F)(C(F)(F)F)N=C(CCC1CCCCC1)N2	0%	3%	-16%	-6%	-6%	-4%
COc1ccc(-n2c3c(c(=O)[nH]c2=O)C(C(F)(F)F)(C(F)(F)F)N=C(CC(C)C)N3)cc1	3%	-1%	-14%	-3%	1%	?
FC(F)(F)c1ccccc1NC(=S)Nc1cccc(Cl)c1	0%	-7%	2%	-1%	1%	-25%
Cc1nn2c(-c3ccco3)nnc2c2ccccc12	0.56µM*	2%	-17%	-1%	-9%	23%
COc1ccc(-c2nnc3c4ccccc4c(C)nn23)cc1	4.5µM*	12%	-101%	6%	-10%	?
COCCCn1c(C)nc2c(c1=O)c1nc3ccccc3nc1n2CCc1ccccc1	-1%	2%	-12%	2%	-11%	8.2µM*
Cc1c(C(=O)NCCN(C)C)sc2nc3n(c(=O)c12)CCC3	-1%	nt	-1%	-2%	3%	7%
COC(=O)/C(C#N)=C/c1c(-c2ccccc2)nc2n1CCS2	3%	2%	1%	1%	1%	?
Clc1cccc(Cl)c1CO/N=C/c1c(-c2ccccc2)nc2n1CCS2	0%	0%	5%	-2%	-24%	18µM*
O=C(NCCCCc1ccccc1)c1cccc(NC(=O)C2CCCCC2)c1	1%	nt	nt	-2%	-1%	?
O=C(NCCCCc1ccccc1)c1cccc(NC(=O)C2CCC2)c1	1%	nt	nt	0%	0%	16µM*
O=C(CNC(=O)c1ccc(Br)o1)NCc1cccc(Cl)c1	-1%	1%	2%	0%	0%	-24%
COc1cccc2cc(C(=O)Nc3ccc(CC(=O)O)cc3)c(=O)oc12	-4%	nt	?	-11%	-12%	1.5µM*
